Test results: ChEMBL document CHEMBL1127907, “Design of a potent 5-HT4 receptor agonist with nanomolar affinity” (Bioorg Med Chem Lett, 1994)

Sequences of proteins named here, by UniProt entry; tags and fusion partners are left off. A change or cut given only in a name is not applied to a line headed by its entry.
UniProt O70528: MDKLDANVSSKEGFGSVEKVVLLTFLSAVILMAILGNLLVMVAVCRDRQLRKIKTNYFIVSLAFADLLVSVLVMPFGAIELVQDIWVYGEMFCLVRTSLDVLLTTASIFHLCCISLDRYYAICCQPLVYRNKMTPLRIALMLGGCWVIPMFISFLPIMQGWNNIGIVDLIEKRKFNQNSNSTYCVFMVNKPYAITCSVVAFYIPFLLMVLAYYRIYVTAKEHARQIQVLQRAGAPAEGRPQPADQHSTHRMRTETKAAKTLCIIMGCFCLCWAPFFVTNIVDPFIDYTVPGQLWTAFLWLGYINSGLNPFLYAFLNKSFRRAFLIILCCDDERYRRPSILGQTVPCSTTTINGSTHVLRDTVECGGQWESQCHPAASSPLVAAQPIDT

Target: 5-hydroxytryptamine receptor 4 (Cavia porcellus) (UniProt O70528)
Assay: 5-hydroxytryptamine 4 receptor agonist activity as percent maximum 5-HT effect in response to electrical stimulation in male guinea pig ileum
Assay type: functional, tissue-based

Row | SMILES | Activity [%]
1 | COc1cc(N)c(Cl)cc1C(=O)O[C@@H]1CN2CCC1CC2 | 54
2 | COc1cc(N)c(Cl)cc1C(=O)O[C@H]1CN2CCC1CC2 | 75
